Experimental data reported in paper PMC9230784, “Development of a Novel Class of Pyridazinone Derivatives as Selective MAO-B Inhibitors” (Molecules, 2022).

Details: PAMPA-BBB

NCCc1ccc(O)c(O)c1 [Dopamine, reference compound]
Experimental Pe (×10^−6 cm/s): 0.21 ± 0.01 ×10^−6 cm/s
